We go through seven compounds from PubChem BioAssay (NCI).

The nature of assay [1]: NCI Yeast Anticancer Drug Screen. Data for the rad50 strain (AID 155).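 Further: 0% = growth of vehicle-only cultures of the same strain.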 The settings on record: S. cerevisiae rad50 strain growth inhibition, hits give high values.
Assay [2] can be described thus: NCI Yeast Anticancer Drug Screen. Data for the mec2-1 strain (AID 157). The settings on record: S. cerevisiae mec2-1 strain, hits give high values.
The nature of assay [3]: NCI Yeast Anticancer Drug Screen. Data for the sgs1 mgt1 strain (AID 161).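 Further: 0% = growth of cultures given vehicle only.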 The settings on record: S. cerevisiae sgs1 mgt1 strain, hits give high values.
A short description of assay [4]: NCI Yeast Anticancer Drug Screen. Data for the cln2 rad14 strain (AID 165).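 Further: 0% = growth equal to vehicle treated cultures.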 The settings on record: S. cerevisiae cln2 rad14 strain, hits give high values.
A short description of assay [5]: NCI Yeast Anticancer Drug Screen. Data for the bub3 strain (AID 167). The settings on record: S. cerevisiae bub3 mutant strain, hits give high values.
Assay [6] can be described thus: NCI Yeast Anticancer Drug Screen. Data for the mlh1 rad18 strain (AID 175). The settings on record: S. cerevisiae mlh1 rad18 strain growth inhibition, hits give high values.
Where [7] appears, read: at 5.0 µM (retest, dose inferred, filed as 0.5).
Setting [8] is: at 50.0 µM (retest, dose inferred, filed as 5.0).

The list shows a part of the results, in another mix than the full data. More than one record can exist for a structure, and the calls need not agree. Calls of active or inactive are those of the source. No stated cut-off is given here; in the data, active means growth inhibition above about 70%; inactive means the rest.

With `O=[N+]([O-])c1cc([N+](=O)[O-])cc([N+](=O)[O-])c1.c1ccc2cc3c(ccc4ccccc43)cc2c1`, the growth inhibition in assay [1] (setting [7]) was inactive: 15%; in assay [1] (setting [8]), active: 85%; in assay [1] (at 50.0 µM), active: 89.1%; in assay [2] (setting [7]), inactive: 11%; in assay [2] (setting [8]), active: 94%; in assay [2] (at 50.0 µM), active: 86.5%. The growth inhibition in assay [3] (setting [7]) is inactive: 36%; in assay [3] (setting [8]), active: 91%; in assay [3] (at 50.0 µM) it was active: 91.3%; in assay [4] (setting [7]), inactive: 3%; in assay [4] (setting [8]), active: 85%; in assay [4] (at 50.0 µM), active: 83%. For the same compound, the growth inhibition is inactive: 23% in assay [5] (setting [7]); active: 91% in assay [5] (setting [8]); active: 91% in assay [5] (at 50.0 µM); inactive: 13% in assay [6] (setting [7]); active: 91% in assay [6] (setting [8]); active: 83.2% in assay [6] (at 50.0 µM).

`Cc1ccc(S[S+](C)c2ccc(C)cc2)cc1.O=[N+]([O-])c1cc([N+](=O)[O-])c(S(=O)(=O)[O-])c([N+](=O)[O-])c1`: the growth inhibition in assay [1] (setting [7]) was inactive: 4%; in assay [1] (setting [8]) it was inactive: 25%; in assay [1] (at 50.0 µM) it was inactive: 39%; in assay [2] (setting [7]) it was inactive: 20%; in assay [2] (setting [8]), inactive: 44%; in assay [2] (at 50.0 µM) it was inactive: 15.9%. The growth inhibition in assay [3] (setting [7]) is inactive: -8%; in assay [3] (setting [8]) it was inactive: 44%; in assay [3] (at 50.0 µM), inactive: 63.8%; in assay [4] (setting [7]), inactive: -6%; in assay [4] (setting [8]), inactive: 21%; in assay [4] (at 50.0 µM), inactive: 38.6%. The growth inhibition in assay [5] (setting [7]) was inactive: 10%; in assay [5] (setting [8]), inactive: 44%; in assay [5] (at 50.0 µM), inactive: 46.6%; in assay [6] (setting [7]), inactive: 27%; in assay [6] (setting [8]), inactive: 46%; in assay [6] (at 50.0 µM) it was inactive: 26.1%.

With `Cc1c([N+](=O)[O-])cc([N+](=O)[O-])c(Cl)c1[N+](=O)[O-]`, the growth inhibition is inactive: 53% in assay [1] (setting [7]); active: 99% in assay [1] (setting [8]); inactive: 30.3% in assay [1] (at 50.0 µM); inactive: 46% in assay [2] (setting [7]); active: 100% in assay [2] (setting [8]); active: 96.5% in assay [2] (at 50.0 µM). The growth inhibition in assay [3] (setting [7]) was inactive: 55%; in assay [3] (setting [8]), active: 95%; in assay [3] (at 50.0 µM), active: 97.4%; in assay [4] (setting [7]) it was inactive: 29%; in assay [4] (setting [8]) it was active: 100%; in assay [4] (at 50.0 µM), inactive: -4.35%. In addition, the growth inhibition was inactive: 22% in assay [5] (setting [7]); active: 100% in assay [5] (setting [8]); active: 99.4% in assay [5] (at 50.0 µM); inactive: 37% in assay [6] (setting [7]); active: 99% in assay [6] (setting [8]); active: 94.8% in assay [6] (at 50.0 µM).

In the case of `Cc1c([N+](=O)[O-])cc([N+](=O)[O-])c(-c2ccc([N+](=O)[O-])cc2[N+](=O)[O-])c1[N+](=O)[O-]`, the growth inhibition in assay [1] (setting [7]) is active: 92%; in assay [1] (setting [8]), active: 93%; in assay [1] (at 50.0 µM), inactive: 10.7%; in assay [2] (setting [7]) it was active: 93%; in assay [2] (setting [8]), active: 96%; in assay [2] (at 50.0 µM), inactive: 14.4%. The growth inhibition is active: 98% in assay [3] (setting [7]); active: 96% in assay [3] (setting [8]); inactive: 42% in assay [3] (at 50.0 µM); active: 84% in assay [4] (setting [7]); active: 94% in assay [4] (setting [8]); inactive: -5.6% in assay [4] (at 50.0 µM). Moreover, the growth inhibition in assay [5] (setting [7]) is active: 98%; in assay [5] (setting [8]), active: 95%; in assay [5] (at 50.0 µM) it was inactive: -2.05%; in assay [6] (setting [7]), active: 96%; in assay [6] (setting [8]) it was active: 95%; in assay [6] (at 50.0 µM), inactive: 35.5%.

Turning to `O=[N+]([O-])c1cc([N+](=O)[O-])c(Nc2cc(Cl)cc(Cl)c2)c([N+](=O)[O-])c1`, the growth inhibition in assay [1] (setting [7]) was inactive: 57%; in assay [1] (setting [8]) it was active: 96%; in assay [1] (at 50.0 µM), active: 83.7%; in assay [2] (setting [7]), active: 94%; in assay [2] (setting [8]), active: 99%; in assay [2] (at 50.0 µM), active: 84.7%. Moreover, the growth inhibition in assay [3] (setting [7]) is active: 73%; in assay [3] (setting [8]) it was active: 98%; in assay [3] (at 50.0 µM) it was active: 87.3%; in assay [4] (setting [7]) it was inactive: 61%; in assay [4] (setting [8]) it was active: 97%; in assay [4] (at 50.0 µM), active: 80.5%. In addition, the growth inhibition was active: 91% in assay [5] (setting [7]); active: 98% in assay [5] (setting [8]); active: 84.1% in assay [5] (at 50.0 µM); active: 96% in assay [6] (setting [7]); active: 98% in assay [6] (setting [8]); active: 81.3% in assay [6] (at 50.0 µM).

On to `Cc1c2ccccc2cc2ccccc12.O=[N+]([O-])c1cc([N+](=O)[O-])c(O)c([N+](=O)[O-])c1`, for which the growth inhibition in assay [1] (at 1.2 µM) was inactive: -1%; in assay [1] (at 3.7 µM) it was inactive: -36%; in assay [1] (setting [7]), inactive: 31%; in assay [1] (at 11.0 µM), inactive: 38%; in assay [1] (at 33.0 µM), active: 80%; in assay [1] (setting [8]) it was active: 99%. Besides, the growth inhibition was active: 98.8% in assay [1] (at 50.0 µM); active: 96% in assay [1] (at 100.0 µM); inactive: -1% in assay [2] (at 1.2 µM); inactive: 2% in assay [2] (at 3.7 µM); inactive: 21% in assay [2] (setting [7]); inactive: 8% in assay [2] (at 11.0 µM). Further, the growth inhibition is inactive: 26% in assay [2] (at 33.0 µM); active: 100% in assay [2] (setting [8]); active: 99.4% in assay [2] (at 50.0 µM); active: 97% in assay [2] (at 100.0 µM); inactive: 34% in assay [3] (setting [7]); active: 99% in assay [3] (setting [8]). Besides, the growth inhibition in assay [3] (at 50.0 µM) is active: 99.1%; in assay [4] (setting [7]) it was inactive: 21%; in assay [4] (setting [8]), active: 98%; in assay [4] (at 50.0 µM) it was active: 98.5%; in assay [5] (at 1.2 µM) it was inactive: 1%; in assay [5] (at 3.7 µM), inactive: -3%. Moreover, the growth inhibition is inactive: 18% in assay [5] (setting [7]); inactive: 1% in assay [5] (at 11.0 µM); inactive: 31% in assay [5] (at 33.0 µM); active: 99% in assay [5] (setting [8]); active: 98.8% in assay [5] (at 50.0 µM); active: 97% in assay [5] (at 100.0 µM). The growth inhibition in assay [6] (setting [7]) is inactive: 28%; in assay [6] (setting [8]), active: 99%; in assay [6] (at 50.0 µM), active: 99.2%.

As for `O=C(O)C(O)(c1ccccc1)c1ccccc1`, the growth inhibition is inactive: 9% in assay [1] (setting [7]); inactive: 66% in assay [1] (setting [8]); inactive: 67.5% in assay [1] (at 50.0 µM); inactive: 5% in assay [2] (setting [7]); inactive: 19% in assay [2] (setting [8]); inactive: 66.1% in assay [2] (at 50.0 µM). For the same compound, the growth inhibition in assay [3] (setting [7]) was inactive: 1%; in assay [3] (setting [8]) it was inactive: 15%; in assay [3] (at 50.0 µM) it was inactive: 67%; in assay [4] (setting [7]), inactive: 1%; in assay [4] (setting [8]), inactive: 3%; in assay [4] (at 50.0 µM), inactive: 12.8%. In addition, the growth inhibition in assay [5] (setting [7]) was inactive: 46%; in assay [5] (setting [8]) it was inactive: 31%; in assay [5] (at 50.0 µM), active: 74.8%; in assay [6] (setting [7]), inactive: 8%; in assay [6] (setting [8]), inactive: 30%; in assay [6] (at 50.0 µM) it was inactive: 56%.
